Experimental data taken from ChEMBL document CHEMBL1144808 (J Med Chem, 2008).
pIC50: −log10 of the molar value.

Experiments:
NCI-H460 [1] = test: Cytotoxicity against human H460 cells under normoxic condition after 2 hrs by Alamar blue staining assay
NCI-H460 [2] = test: Ratio of IC50 for human H460 cells under normoxic condition to hypoxic condition by Alamar blue staining assay
Liver = test: Metabolic stability in mouse liver microsomes at 5 uM after 30 mins; type: ADME, Microsome; settings: 0.5 h
NCI-H460 [3] = test: Cytotoxicity against human H460 cells under hypoxic condition after 2 hrs by Alamar blue staining assay

## NP(=O)(OCc1ccc([N+](=O)[O-])o1)N(CCBr)CCBr (centres undefined)
NCI-H460 [1]
  pIC50: 4.82
NCI-H460 [2]
  Ratio IC50: 58
Liver
  Stability: 68%
NCI-H460 [3]
  pIC50: 6.59
